This is an account of results in US20060115476A1 (ADIENNE, published 2006).

The assay has as its target T1, scFv TS-A12/22.
T1 construct: Obtained from TS-A12 by VL chain shuffling; also called TS-A12/22 antibody
Description: competitive ELISA, peptide pre-incubated with scFv, then binding to C5 on solid phase. The source says:
In order to verify this hypothesis, a peptide of 18 amino acids was synthesised, with sequence: KDMQLGR^{↓}[…] (P5A-18 also termed C5cs comprising SEQ IDN15). This peptide corresponds to region 727-744 of the mature protein and comprises the cleavage site of C5 convertase (indicated by the arrow) between glycine 733 and arginine 734 according to SwissProt numbering for human C5 (SEQ ID P01031). The peptide was used in a competitive ELISA assay on the C5 protein on solid phase. Before binding to the solid phase, the TS-A12/22 antibody was pre-incubated with the P5A-18 peptide, corresponding to amino acids 727-744 of the C5 component, or with an unrelated peptide of sequence […] (SEQ ID No. 16 of sequence listing) corresponding to a fibronectin derived peptide termed CS5.

B1: P5A-18 peptide (KDMQLGRLHMKTLLPVSK) (peptide)
peptide: KDMQLGRLHMKTLLPVSK
notes: Said to correspond to region 727-744 of the mature human C5 protein; also called C5cs
Molecule B1 displayed a Ki of 1000 nM.
